From PubChem BioAssay AID624377 (The Scripps Research Institute Molecular Screening Center, 2012)
Only a part is listed here, and it is no random draw. The source made the active and inactive calls. Rule as the data show it: active = inhibition above about 25%; inactive = the rest.

Sequences of proteins named here, by UniProt entry; tags and fusion partners are left off. Residues count along the entry.
UniProt Q9ULH1, 325-724 limits assumed: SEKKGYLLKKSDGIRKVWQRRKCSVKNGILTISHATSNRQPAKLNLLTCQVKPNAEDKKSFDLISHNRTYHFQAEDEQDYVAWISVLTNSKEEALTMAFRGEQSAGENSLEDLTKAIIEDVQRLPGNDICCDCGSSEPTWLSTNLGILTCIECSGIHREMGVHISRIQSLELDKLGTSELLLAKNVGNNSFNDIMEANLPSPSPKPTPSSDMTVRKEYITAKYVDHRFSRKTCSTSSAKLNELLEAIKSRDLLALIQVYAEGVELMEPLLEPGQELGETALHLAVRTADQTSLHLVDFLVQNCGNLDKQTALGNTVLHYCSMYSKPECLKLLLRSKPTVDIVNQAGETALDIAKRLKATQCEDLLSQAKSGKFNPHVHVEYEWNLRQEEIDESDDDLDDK

What follows are compounds tested against Arf-GAP with SH3 domain, ANK repeat and PH domain-containing protein 1 (Homo sapiens) (UniProt Q9ULH1) (assay: inhibitors of human ASAP1 ArfGAP activity, primary screen, biochemical, fluorescence polarization (AID 624377;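 also: 0% = vehicle with enzyme and substrate and 100% = no enzyme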)). Conditions: ASAP1-stimulated ARF1 GTP hydrolysis, GDP FP detection; at 16.5 µM; hits give high values.
For `CCOC(=O)N1CCC(Nc2ccc(OC)cc2)CC1`, the inhibition was inactive: -3.93%.
In the case of `CCCCn1nnnc1C(c1ccc(OC)cc1)N1CCC(n2c(=O)[nH]c3ccccc32)CC1` (stereo unspecified), the inhibition is reported as inactive: -16.3%.
For `N#CC1(Nc2ccccc2)CCN(Cc2ccccc2)CC1`, the inhibition was inactive: 6.01%.
In the case of `O=C(NCC1(N2CCCCC2)CCCCC1)c1ccc(Cl)s1`, the inhibition is reported as inactive: -0.55%.
For `O=c1[nH]c2ccccc2n1C1CCN(C(c2cc3ccccc3o2)c2nnnn2C2CCCCC2)CC1` (stereo unspecified), the inhibition was inactive: 2.86%.
`O=C(OC1CN2CCC1CC2)C1c2ccccc2Oc2ccccc21` (stereo unspecified) was tested, and the inhibition was inactive: 0.3%.
`COc1ccc(Cl)cc1C(=O)NCC1(N2CCOCC2)CCCCC1` was tested, and the inhibition was inactive: -3.23%.
`COc1ccc(CN(CCCl)CCCl)cc1Cl` was tested, and the inhibition was inactive: -9.62%.
For `CN(C)c1cccc(C(=O)NCC2(N3CCCCC3)CCCCC2)c1`, the inhibition was inactive: -6.75%.
In the case of `CC(C)c1ccc(NC2CCN(C(=O)OC(C)(C)C)CC2)cc1`, the inhibition is reported as inactive: -12.9%.
With `CCCCn1nnnc1C(c1ccnc2ccccc12)N1CCC(n2c(=O)[nH]c3ccccc32)CC1` (stereo unspecified) the inhibition was inactive: 0.86%.
`COc1cc(OC)c(C(=O)NCC2(N(C)C)CCCCC2)cc1OC` was tested, and the inhibition was inactive: -0.59%.
For `CCC(c1nnnn1C(C)(C)C)N1CCC(n2c(=O)[nH]c3ccccc32)CC1` (stereo unspecified), the inhibition was inactive: 9.67%.
For `O=C(NCC1(N2CCOCC2)CCCCC1)c1cc(F)c(F)cc1Cl`, the inhibition was inactive: 11.4%.
`CN1CCC(Nc2cccc(F)c2)CC1` was tested, and the inhibition was inactive: 23.6%.
`O=C(NCC1(N2CCCCC2)CCCCC1)c1cncc(Br)c1` was tested, and the inhibition was inactive: -5.26%.
With `Cc1ccc(C(=O)NCC2(N(C)C)CCCCC2)o1` the inhibition was inactive: -7.27%.
In the case of `CCCOc1ccc(C(=O)NCC2(N(C)C)CCCCC2)cc1OC`, the inhibition is reported as inactive: -3.8%.
In the case of `COc1ccc(C(c2nnnn2C2CCCC2)N2CCC(n3c(=O)[nH]c4ccccc43)CC2)cc1` (stereo unspecified), the inhibition is reported as inactive: -1.95%.
`CC(C)(C)n1nnnc1C(c1ccccc1OC(F)(F)F)N1CCC(n2c(=O)[nH]c3ccccc32)CC1` (stereo unspecified) was tested, and the inhibition was inactive: -0.19%.
With `O=C(NCC1(N2CCCCC2)CCCCC1)c1ccc(OC(F)F)cc1` the inhibition was inactive: 2.63%.
With `CSc1ccc(C(=O)NCC2(N3CCOCC3)CCCCC2)cc1` the inhibition was inactive: -2.82%.
With `O=C(NCC1(N2CCCCC2)CCCCC1)c1cccc([N+](=O)[O-])c1` the inhibition was inactive: -5.8%.
For `CCN1CCC(Nc2ccc(Cl)cc2)CC1`, the inhibition was inactive: 2.85%.
In the case of `O=c1[nH]c2ccccc2n1C1CCN(C(c2ccccc2OC(F)(F)F)c2nnnn2C2CCCC2)CC1` (stereo unspecified), the inhibition is reported as inactive: -8.43%.
For `N#CC1(Nc2ccccc2)CCN(CCc2ccccc2)CC1`, the inhibition was inactive: 11.3%.
With `O=C(NCC1(N2CCCCC2)CCCCC1)c1cccc(C(F)(F)F)c1` the inhibition was inactive: -2.77%.
With `CC(C)c1ccc(C(=O)NCC2(N3CCOCC3)CCCCC2)cc1` the inhibition was inactive: 7.5%.
In the case of `COc1ccc(NC2CCN(C(=O)OC(C)(C)C)CC2)cc1`, the inhibition is reported as inactive: -8.28%.
In the case of `CN1CCN(CCOC(=O)C(O)(c2ccccc2)c2ccccc2)CC1`, the inhibition is reported as inactive: 0.04%.
For `CCCCn1nnnc1C(c1cccc2ccccc12)N1CCC(n2c(=O)[nH]c3ccccc32)CC1` (stereo unspecified), the inhibition was inactive: 12.2%.
`O=C(NCC1(N2CCOCC2)CCCCC1)c1cc(=O)[nH]c2ccccc12` was tested, and the inhibition was inactive: 9.41%.
`COc1cc(C(=O)NCC2(N3CCCCC3)CCCCC2)ccc1OC(F)F` was tested, and the inhibition was inactive: -3.92%.
`CC(C)(C)OC(=O)N1CCC(N(C(=O)c2ccccc2)c2ccc(Cl)cc2)CC1` was tested, and the inhibition was inactive: -2.35%.
In the case of `N#Cc1ccc(C(=O)NCC2(N3CCCCC3)CCCCC2)cc1`, the inhibition is reported as inactive: -9.21%.
In the case of `C/C(N)=N\P(=O)(Oc1ccccc1)Oc1ccccc1`, the inhibition is reported as inactive: -0.67%.
For `c1ccc(CN2CCC(Nc3ccccc3)CC2)cc1`, the inhibition was inactive: 2.64%.
`Cc1cc(N(CCCl)CCCl)ccc1C=O` was tested, and the inhibition was inactive: -18.1%.
With `O=c1[nH]c2ccccc2n1C1CCN(C(c2ccccc2)c2nnnn2C2CCCC2)CC1` (stereo unspecified) the inhibition was inactive: -2.97%.
With `CCCN1CCC(Nc2cc(OC)cc(OC)c2)CC1` the inhibition was inactive: 16%.
In the case of `CN(C)C1(CNC(=O)c2cccc(C#N)c2)CCCCC1`, the inhibition is reported as inactive: -4.62%.
`CC(C)(C)n1nnnc1C(c1cccc2ccccc12)N1CCC(n2c(=O)[nH]c3ccccc32)CC1` (stereo unspecified) was tested, and the inhibition was inactive: -13.8%.
In the case of `O=C(NCC1(N2CCOCC2)CCCCC1)c1cc(Br)ccc1Cl`, the inhibition is reported as inactive: -14.2%.
With `CCCCn1nnnc1C(c1ccccc1)N1CCC(n2c(=O)[nH]c3ccccc32)CC1` (stereo unspecified) the inhibition was inactive: -5.11%.
`COc1cc(C(=O)NCC2(N3CCOCC3)CCCCC2)cc(OC)c1C` was tested, and the inhibition was inactive: 6.8%.
In the case of `COc1ccc(C(=O)NCC2(N3CCOCC3)CCCCC2)cc1OC`, the inhibition is reported as inactive: 15.6%.
`O=c1[nH]c2ccccc2n1C1CCN(C(c2ccnc3ccccc23)c2nnnn2C2CCCC2)CC1` (stereo unspecified) was tested, and the inhibition was inactive: 9.02%.
For `O=c1[nH]c2ccccc2n1C1CCN(C(c2cccs2)c2nnnn2C2CCCCC2)CC1` (stereo unspecified), the inhibition was inactive: -5.18%.
`N/C(=N\O)c1c(N)no[n+]1[O-]` was tested, and the inhibition was inactive: -15.2%.
For `CCOC(=O)N1CCC(Nc2ccc(C)cc2)CC1`, the inhibition was inactive: -3.59%.
`COc1cccc(C(c2nnnn2C(C)(C)C)N2CCC(n3c(=O)[nH]c4ccccc43)CC2)c1OC` (stereo unspecified) was tested, and the inhibition was inactive: -11.6%.
With `CCCCn1nnnc1C(c1cccc(OC)c1OC)N1CCC(n2c(=O)[nH]c3ccccc32)CC1` (stereo unspecified) the inhibition was inactive: -6%.
In the case of `O=C(OC1CN2CCC1CC2)C1c2ccccc2C=Cc2ccccc21` (stereo unspecified), the inhibition is reported as inactive: -14.8%.
With `O=c1[nH]c2ccccc2n1C1CCN(C(c2cccs2)c2nnnn2C2CCCC2)CC1` (stereo unspecified) the inhibition was inactive: 4.24%.
In the case of `CCOc1ncccc1C(=O)NCC1(N2CCOCC2)CCCCC1`, the inhibition is reported as inactive: -20%.
For `CN1CCC(Nc2ccc(F)c(Cl)c2)CC1`, the inhibition was inactive: 2.48%.
For `O=c1[nH]c2ccccc2n1C1CCN(C(c2cc3ccccc3o2)c2nnnn2C2CCCC2)CC1` (stereo unspecified), the inhibition was inactive: -2.11%.
`CCCOc1ccc(C(=O)NCC2(N(C)C)CCCCC2)cc1` was tested, and the inhibition was inactive: 0.46%.
In the case of `CC(C)(C)OC(=O)N1CCC(Nc2ccccc2)CC1`, the inhibition is reported as inactive: 3.54%.
In the case of `NN(c1ccccc1)C1CCN(CCc2ccccc2)CC1`, the inhibition is reported as inactive: -5.86%.
`O=C(O)C1(Nc2ccccc2)CCN(Cc2ccccc2)CC1` was tested, and the inhibition was inactive: -9.96%.
For `CCC(CO)(C(=O)OC1CN2CCC1CC2)c1ccccc1` (stereo unspecified), the inhibition was inactive: 6.91%.
With `COc1cccc(C(=O)N(c2cc(C)cc(C)c2)C2CCN(C(=O)OC(C)(C)C)CC2)c1` the inhibition was inactive: -6.56%.
With `COc1cccc(C(c2nnnn2C2CCCC2)N2CCC(n3c(=O)[nH]c4ccccc43)CC2)c1OC` (stereo unspecified) the inhibition was inactive: -7.96%.
With `COc1cc(OC)cc(C(=O)NCC2(N3CCOCC3)CCCCC2)c1` the inhibition was inactive: 5.73%.
`CN1CCC(Nc2ccc(Cl)cc2)CC1` was tested, and the inhibition was inactive: 1.51%.
In the case of `COc1cc(OC)cc(C(=O)NCC2(N3CCCCC3)CCCCC2)c1`, the inhibition is reported as inactive: -13.2%.
For `O=c1[nH]c2ccccc2n1C1CCN(C(c2ccnc3ccccc23)c2nnnn2C2CCCCC2)CC1` (stereo unspecified), the inhibition was inactive: 8.83%.
For `COc1cccc(C(c2nnnn2C2CCCCC2)N2CCC(n3c(=O)[nH]c4ccccc43)CC2)c1OC` (stereo unspecified), the inhibition was inactive: 2.06%.
With `CC(=O)N(c1ccccc1)C1CCNCC1` the inhibition was inactive: -6.04%.
`CCC(c1nnnn1C1CCCCC1)N1CCC(n2c(=O)[nH]c3ccccc32)CC1` (stereo unspecified) was tested, and the inhibition was inactive: 1.33%.
With `Cc1ccc(NC2(C#N)CCN(Cc3ccccc3)CC2)cc1` the inhibition was inactive: 12.4%.
In the case of `Cc1ccc(C(=O)NCC2(N3CCCCC3)CCCCC2)o1`, the inhibition is reported as inactive: 1.02%.
In the case of `Fc1ccccc1NC1CCN(Cc2ccccc2)CC1`, the inhibition is reported as inactive: 0.99%.
In the case of `Cc1ccccc1NC1(C#N)CCN(Cc2ccccc2)CC1`, the inhibition is reported as inactive: 0.03%.
With `CCN1CCC(Nc2cccc(F)c2)CC1` the inhibition was inactive: -4.45%.
For `COc1ccc(C(c2nnnn2C2CCCCC2)N2CCC(n3c(=O)[nH]c4ccccc43)CC2)cc1` (stereo unspecified), the inhibition was inactive: 3.66%.
In the case of `CC(C)(C)n1nnnc1C(c1ccnc2ccccc12)N1CCC(n2c(=O)[nH]c3ccccc32)CC1` (stereo unspecified), the inhibition is reported as inactive: 9.39%.
`O=C(NCC1(N2CCCCC2)CCCCC1)c1ccco1` was tested, and the inhibition was inactive: 0.12%.
For `CN(C)c1ccc(C(=O)NCC2(N3CCCCC3)CCCCC2)cc1`, the inhibition was inactive: -1.86%.
In the case of `Cn1c(=O)[nH]cc(N(CCCl)CCCl)c1=O`, the inhibition is reported as inactive: 5.33%.
